The assay has as its target IgG1 Fc Fc (Homo sapiens, UniProt P01857 = IgG part). The assay can be described thus: SPR.

B1: gp34-M (protein)
chain: SSSNAVEPTKKPLKLANYRATCEDRTRTLVTRLNTSHHSVVWQRYDIYSRYMRRMPPLCIITDAYKETTHQGGATFTCTRQNLTLYNLTVKDTGVYLLQDQYTGDVEAFYLIIHPRSFCRALETRRCFYPGPGRVVVTDSQEADRAIISDLKRQWSGLSLHCAWVSGLMIFVGALVICFLRSQRIGEQDAEQLRTDLDTEPLLLTVDGDLE
The Kd is the free concentration of one partner at which half of the binding sites on the other are occupied at equilibrium, for simple one-to-one binding. High values mean lower affinity, low ones higher affinity. B1: binding was put at a Kd of 7.3 nM. In other words, the single-digit nanomolar range.
